Test system: LabCyte MELANO-MODEL, human skin three-dimensional model containing melanocytes
Test: Melanin production inhibition test in human skin three-dimensional model
Assay type: cell-based
Settings: Melanocyte, 336 h, read-out: concentration at which melanin production inhibition rate reaches 50%
Experimental: The culture medium and the applied sample solution were exchanged every 2 or 3 days. After the completion of the culture, the percentage of viable cells was measured by an MTT (methylthiazole tetrazolium) assay. Further, a melanin amount was measured.
Melanin amount: The skin cells after the MTT assay were immersed in a reagent obtained by dissolving 1% SDS, 0.05 mM EDTA, and a 10 mM tris-HCl buffer solution (pH 7.2). 3 μL of a 5 mg/mL Proteinase K was added and the solution was heated in a water bath at 45° C. overnight to dissolve the skin. A 30% hydrogen peroxide solution and a 500 mM sodium carbonate solution were added thereto, the solution was mixed well and heated in a water bath at 80° C. for 30 min, and impurities were removed by chloroform/methanol (2/1). At the same time, melanin solutions were prepared by similar operations to prepare a calibration curve, and a melanin amount in the cultured skin cells was determined.

- IC50: 5.3 mM
SMILES: CC(C)(CO)[C@@H](O)C(=O)NCCC(=O)NCCSSCCNC(=O)CCNC(=O)[C@H](O)C(C)(C)CO [Pantethine, pantethine]
